# Experiment: Stability of the strain in final product (plate counting of cfus, Zone II storage)
# Format: physicochemical
# Conditions: 25° C., 60% RH, 0 vs 12 months
# Description: The product was packaged in glass amber bottles and stored under Zone II conditions (25° C., 60% Relative Humidity (RH)). […] Results were expressed in LOG (cfus). Trend line was obtained and predicted cfus at 12 months were estimated. Fold and log reduction comparing cfus between 0 and 12 months were calculated.
substance,measurement,value
Bifidobacterium longum subsp. longum KABP-042 (CECT 7894),fold reduction of cfus over 12 months,3 fold

# From US20240293483A1, “PROBIOTIC COMPOSITION FOR THE TREATMENT OF INCREASED INTESTINAL PERMEABILITY” (AB-BIOTICS, S.A., priority 2021, published 2024)
